Experimental data from paper PMC7488488 (Acta Pharmaceutica Sinica. B, 2019).

Chains of the proteins cited; added tags and fusions are not shown.
UniProt Q00987, whole entry: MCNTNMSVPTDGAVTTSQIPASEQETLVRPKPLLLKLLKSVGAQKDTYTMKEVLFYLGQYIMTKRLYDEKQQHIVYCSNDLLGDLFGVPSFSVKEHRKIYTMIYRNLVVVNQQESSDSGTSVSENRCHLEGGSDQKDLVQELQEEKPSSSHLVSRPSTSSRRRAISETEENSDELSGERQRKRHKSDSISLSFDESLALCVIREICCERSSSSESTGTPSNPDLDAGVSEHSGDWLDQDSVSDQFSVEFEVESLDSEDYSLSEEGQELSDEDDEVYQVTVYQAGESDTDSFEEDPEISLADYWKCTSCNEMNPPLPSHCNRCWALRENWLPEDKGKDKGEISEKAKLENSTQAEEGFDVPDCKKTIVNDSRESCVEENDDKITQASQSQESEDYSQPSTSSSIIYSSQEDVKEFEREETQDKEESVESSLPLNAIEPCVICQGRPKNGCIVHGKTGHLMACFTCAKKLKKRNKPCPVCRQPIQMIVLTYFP

Target: MDM2 (Homo sapiens, UniProt Q00987)
Assay: TR-FRET
Type: binding
Conditions: mean ± SD (n = 3)

Question: For `COc1ccc(C2=N[C@@H](c3ccc(Cl)cc3)[C@@H](c3ccc(Cl)cc3)N2C(=O)N2CCNC(=O)C2)c(OC(C)C)c1` [Nutlin-3a, nutlin-3a, reference compound], which “Inhibition rate at 1.0 μmol/L, MDM2” value is on record?
Answer: Its value is 86.9 ± 9.3%.
